Screening results deposited in PubChem by Broad Institute.
PglD inh – C. jejuni PglD acetyltransferase inhibitors, primary screen, biochemical, DTNB colorimetric, single point. purified PglD enzyme, DTNB colorimetric CoA detection. inhibition, % at 12.5 µM. 0.098% of 360,000 active; in the data active means inhibition above about 16%, passing the limit was not always enough; inconclusive means no clear call, values can overlap the other calls
esBAF inh – Bmi1 luciferase reporter increase in mESCs, primary screen, esBAF inhibitor project, mouse ES cells, Bmi1 luciferase knock-in, single point; reporter increase, % at 12.5 µM; 24 h; 100% = twice the neutral-well signal; 2% of 350,000 active; AID 602393, 2012; in the data active means activation above about 40%; inconclusive means no clear call, values can overlap the other calls;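 further: a rise in the Bmi1 reporter signal indicates esBAF inhibition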
miR122 inh – miR-122 Renilla sensor signal increase in Huh7, primary screen, miR-122 inhibitor project, cell-based, single point, plate reader; Huh7 miR-122 Renilla luciferase sensor, 48 h; neutral wells = 0, positive control = 100; activation (reporter increase), % at 12.5 µM; 0.3% of 340,000 active;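 active means mean replicate activation score at least 90 and every replicate individually at or above 90; inconclusive means only one of the two criteria met; inactive means neither criterion met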;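 further: higher luciferase means less miR-122 activity so hits act as miR-122 inhibitors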
UUG fidelity – modulators of yeast start codon fidelity, primary screen, whole organism, S. cerevisiae, single point, plate reader | AID 602363, 2012 | S. cerevisiae UUG-firefly luciferase reporter, luminescence/redox ratio | activity score, % at 18.7 µM | hit rate 0.13% among 350,000;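 active = replicate mean at a twofold rise or more, about +100% in these data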;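 also: firefly luciferase made from a UUG start codon reports start codon fidelity; reporter light over untreated wells divided by growth signal over untreated wells; some hits fall short of that in this replicate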
Wnt bcat act – Wnt/beta-catenin pathway activators, primary screen, cell-based, plate reader, single point | Wnt/beta-catenin reporter cell assay, activator | activation, % at 9.35 µM | 1.2% of 300,000 active; in the data active means activation above about 30%, passing the limit was not always enough; inconclusive means no clear call, values can overlap the other calls
MITF act – activators of MITF-driven TRPM1 promoter reporter, primary screen, cell-based, SK-MEL-5, luciferase, single point; SK-MEL-5 TRPM1-promoter luciferase, 24 h; % of positive control, neutral wells = 0; activation, % at 12.5 µM; 0.75% of 300,000 active;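 active means mean activation of at least 80% with every replicate also reaching 80%; inconclusive means mean reaches 80% but some replicate falls short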
Numbers stand for hits; - = inactive; ? = inconclusive; . = no result. Shown are actives, neighbours in structure and some others; about 2.8% of the full set was active somewhere.

SMILES | PglD inh | esBAF inh | miR122 inh | UUG fidelity | Wnt bcat act | MITF act
O=C(Nc1ccc2c(c1)OCCO2)C(c1ccncc1)n1c(=O)c(-c2cc3ccccc3[nH]2)nc2ccccc21 (stereo unspecified) | . | . | . | . | 53.3 | .
Cc1ccc(NC(=O)C(=O)c2ccc(C)cc2)cc1 | - | 75.5 | - | - | ? | -
Cc1ccc(NCC(=O)c2ccc(C)cc2)cc1 | - | - | - | - | - | 84.4
Cc1ccc(C(=O)CNc2ccc(C)c(Cl)c2)cc1 | . | . | . | . | . | -
COc1ccc(S(=O)(=O)N(C)C[C@H]2OCCCC[C@H](C)Oc3ccc(N(C)C)cc3C(=O)N([C@@H](C)CO)C[C@H]2C)cc1 | . | - | - | . | . | .
CCOc1ccccc1/C=N/Nc1ccccc1[N+](=O)[O-] | - | 54.1 | - | - | . | -
COc1ccc(S(=O)(=O)N(C)C[C@@H]2Oc3c(NS(=O)(=O)c4ccc(F)cc4)cccc3C(=O)N([C@H](C)CO)C[C@@H]2C)cc1 | - | - | - | - | . | .
CCN1[C@@H]2c3ccc(-c4cccc(C(=O)N(C)C)c4)c(=O)n3C[C@@H]2[C@@H](CO)[C@@H]1C(=O)OC | - | - | - | - | . | .
Nc1nc(COC(=O)c2ccco2)nc(Nc2ccccc2)n1 | - | 47.8 | - | - | - | .
Cc1ccccc1Nc1nc(N)nc(CN(C)c2ccccc2)n1 | - | 46.8 | - | - | . | -
Cc1ccccc1Nc1nc(N)nc(COC(=O)c2ccco2)n1 | - | 77.1 | - | - | - | -
C[C@@H]1CN([C@@H](C)CO)C(=O)c2cc(C#Cc3ccccc3F)cnc2O[C@@H]1CN(C)S(=O)(=O)c1ccccc1F | - | - | - | - | . | .
CCOc1ccc(S(=O)(=O)NCCN2CCOCC2)c2ccccc12 | - | - | 108.2 | - | - | -
CCOc1cc(C)c(C(C)C)cc1S(=O)(=O)NCc1ccccn1 | - | . | 104.5 | - | . | -
O=S(=O)(NCc1ccco1)c1ccccc1Br | - | - | - | - | - | -
CCOc1ccc(S(=O)(=O)NCc2ccco2)c2ccccc12 | - | - | 122.0 | - | - | -
Cc1ccc(-c2nn3c(C)nnc3c3ccccc23)cc1S(=O)(=O)NCCN1CCOCC1 | - | - | 198.3 | - | . | -
CCOc1cc(C)c(Cl)cc1S(=O)(=O)NCc1ccco1 | - | - | 116.4 | 309.7 | . | .
COc1cc(C)c(Cl)cc1S(=O)(=O)NCc1ccco1 | - | - | 105.2 | - | - | -
Cc1cc(S(=O)(=O)NCc2ccco2)c(C)cc1Cl | - | . | - | - | - | -
COc1cc(OC)c(S(=O)(=O)NCc2ccco2)cc1S(=O)(=O)NCc1ccco1 | - | - | - | - | . | -
COc1ccc(/C=C/c2ccc3ccccc3[n+]2C)cc1OC | - | 55.0 | - | - | . | -
CC(=O)Oc1ccccc1/C=C/c1ccc2ccccc2[n+]1C | - | 65.3 | - | - | - | -
CC(=O)/C=C\c1ccccc1OC(=O)c1cc2ccccc2oc1=O | - | - | - | - | - | -
O=C1C(=Cc2ccco2)CCCC1=Cc1ccco1 | - | 57.1 | . | - | - | -
SMILES | PglD inh | esBAF inh | miR122 inh | UUG fidelity | Wnt bcat act | MITF act
CC(C)(C)[S@@](=O)N1Cc2cc(C(=O)N[C@H]3CCN(Cc4ccccc4)C3)nc(-c3cccc(-c4cccnc4)c3)c2[C@H]1CCO | - | - | . | . | . | .
C[C@H]1CN([C@@H](C)CO)S(=O)(=O)c2ccc(C#CC3CC3)cc2O[C@@H]1CN(C)Cc1cccnc1 | - | - | - | - | . | .
Oc1ccc(Nc2ccc3ccccc3c2)cc1 | - | 49.1 | - | - | - | .
COc1ccc(NC(=O)CSCc2ccccc2C)cc1 | - | 66.7 | - | - | . | -
COc1ccc(NC(=O)CN(C)C(=O)C2(c3ccccc3)CCCC2)cc1 | - | 55.2 | - | - | - | -
COc1ccc(NC(=O)CCOc2ccccc2)cc1 | - | 49.2 | - | - | . | 112.3
COC(=O)c1ccc(NC(=O)CCOc2ccccc2)cc1 | . | . | . | . | - | -
COc1ccc(NC(=O)CSc2ccccn2)cc1 | - | - | - | - | 35.6 | .
Cc1ccc(S(=O)(=O)NCC[C@@H]2CC[C@H](NC(=O)CCN3CCCCC3)[C@@H](CO)O2)cc1 | - | - | . | - | . | .
